Literature values in paper PMC11852064 (Antibiotics, 2025).

Conditions: cited from earlier work

Dalbavancin
Terminal half-life: about 14.4 days
